Molecules are shown by their SMILES. The list shows a part of the results, in another mix than the full data. Records with an inconclusive call do not appear. Some structures show a salt or complex split into parts, the way the source records it. Activity calls are given as the source filed them. Calls follow the shape of the dose curve; as a rule, active = well fitted inhibition curve with a large enough effect; inconclusive = small, poorly fitted or top-dose-only effect, or effect the other way; inactive = flat fitted curve, though single readings scatter.
% is scaled to controls: 0 for no effect and ±100 for the full control effect.

Sequences of proteins named here, by UniProt entry; tags and fusion partners are left off.
UniProt P07954, whole entry: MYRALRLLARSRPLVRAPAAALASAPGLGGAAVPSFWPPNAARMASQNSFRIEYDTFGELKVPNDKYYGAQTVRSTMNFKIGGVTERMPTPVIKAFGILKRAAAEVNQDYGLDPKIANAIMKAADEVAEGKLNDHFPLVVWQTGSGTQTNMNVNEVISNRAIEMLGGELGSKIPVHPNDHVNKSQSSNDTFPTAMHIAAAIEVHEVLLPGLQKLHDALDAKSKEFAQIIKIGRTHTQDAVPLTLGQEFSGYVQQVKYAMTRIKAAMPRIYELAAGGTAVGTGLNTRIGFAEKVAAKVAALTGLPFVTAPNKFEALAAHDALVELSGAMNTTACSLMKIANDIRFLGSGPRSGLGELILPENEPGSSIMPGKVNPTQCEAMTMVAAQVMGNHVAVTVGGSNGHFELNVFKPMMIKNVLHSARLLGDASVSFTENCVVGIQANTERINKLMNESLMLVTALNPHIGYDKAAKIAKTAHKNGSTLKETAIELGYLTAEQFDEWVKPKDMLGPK

The target in the test is Fumarate hydratase, mitochondrial (Homo sapiens) (UniProt P07954). The experiment in a line: Identification of activators of human fumarate hydratase by quantitative high-throughput screening. Also: the screen sought activators but most active calls are inhibition curves; nearly all actives have a fitted effect of over 45% in size. Particulars: FH coupled MDH/diaphorase resazurin fluorescence, 15 min; at 53.3 µM (top of the series) unless noted. From the text:
Fumarate hydratase (FH) is a metabolic enzyme that is part of the Krebs-cycle, and reversibly catalyzes the hydration of fumarate to malate. Mutations of the FH gene have been associated with fumarate hydratase deficiency (FHD), hereditary leiomyomatosis, renal cell cancer (HLRCC), and other diseases. Currently there are no high-quality small molecule probes for studying human fumarate hydratase. To address this, we developed a quantitative high throughput screening (qHTS) FH assay and screened a total of 57,037 compounds in dose-response. While no inhibitors of FH were confirmed, a series of phenyl-pyrrolo-pyrimidine-diones (12 compounds) were identified as activators of human fumarate hydratase. […] The binding of two compounds from the series to human fumarate hydratase was confirmed by microscale thermophoresis. The low hit rate in this screening campaign confirmed that FH is a "tough target" to modulate, and the small molecule activators of human fumarate hydratase reported here may serve as a starting point for further optimization and development into cellular probes of human FH and potential drug candidates.
For primary high-throughput screen, 3 ul of FH solution (containing 13.33nM human fumarate hydratase, 13.33IU/ml malic dehydrogenase, 0.2mM NAD, 0.067mg/ml diaphorase and 0.067mM resazurin in the assay buffer (50 mM Tris pH 8.0, 5 mM MgCl2, 0.01% Brij 3) was dispensed into each well in a black solid bottom 1536-well assay plate (Greiner Bio-One) using a BioRAPTR FRD dispenser (Beckman Coulter, Brea, CA). A 1536-well pintool dispenser outfitted with 20 nl pins (Wako Automation, San Diego, CA) was used to transfer 20 nL of DMSO-solubilized compound (Cherrypick plates) to each 1536-well assay plate. Each compound was screened at five concentrations: 15 nM, 151 nM, 1.5 uM, 15.4 uM, 76.9 uM. Following compound transfer, plates were incubated in room temperature for 10 minutes. 1 uL of substrate solution containing fumaric acid (160 uM) was dispensed via BioRAPTR FRD to initiate the reaction. Plates were immediately transferred to a ViewLux microplate imager (PerkinElmer, Waltham, MA), and any resulting resorufin fluorescence was measured (exitation/emission, 525/598 nm) at 0 and 15 minutes. The exposure time is 1 second. Fluorescence from each well was normalized using enzyme-free and DMSO-treated control wells on each plate, and changes in fluorescence (delta RFU) were calculated using the difference in fluorescent signal for each well at 15 minutes versus 0 minutes.
(In general: The colour change of resazurin is a common sign of viable cells or microbes.)
Take `C/C1=C2N=C(/C=C3N=C(/C(C)=C4\N=C(C(CC(N)=O)C4(C)CCC(=O)NCC(C)OP(=O)([O-])OC4C(CO)OC(n5cnc6cc(C)c(C)cc65)C4O)C4(C)N=C1C(CCC(N)=O)C4(C)CC(N)=O)C(CCC(N)=O)C\3(C)C)C(CCC(N)=O)C/2(C)CC(N)=O.[C-]#N.[Co]` (configuration not stated): the activity change, negative = inhibition is inactive: 6.6%.

Consider `O=[N+]([O-])c1cccc([N+](=O)[O-])c1`, for which the activity change, negative = inhibition is inactive: -6.05% [at 79.9 µM].

Regarding `CCOP(=O)(CC)Oc1ccc([N+](=O)[O-])cc1` (configuration not stated), the activity change, negative = inhibition is inactive: 9.41%.

As to `Cc1cccc([N+](=O)[O-])c1[N+](=O)[O-]`, the activity change, negative = inhibition was inactive: -5.65% [at 79.9 µM].

Turning to `C/C1=C2N=C(/C=C3N=C(/C(C)=C4\[N-][C@@](C)([C@@H]5N=C1[C@](C)(CCC(=O)NC[C@@H](C)OP(=O)([O-])O[C@H]1[C@@H](O)[C@@H](n6cnc7cc(C)c(C)cc76)O[C@@H]1CO)[C@H]5CC(N)=O)[C@@](C)(CC(N)=O)[C@@H]4CCC(N)=O)[C@@](C)(CC(N)=O)[C@@H]\3CCC(N)=O)C(C)(C)[C@@H]/2CCC(N)=O.[C-]#N.[Co+3]`, the activity change, negative = inhibition was inactive: -1.43%.

As for `OCCSCCO`, the activity change, negative = inhibition is inactive: 0%.

On to `CC1=C2[N-][C@@](C)([C@@H]3N=C(C(C)=C4N=C(C=C5N=C1[C@@](C)(CC(N)=O)[C@H]5CCC(N)=O)C(C)(C)[C@H]4CCC(N)=O)[C@](C)(CCC(=O)NC[C@@H](C)OP(=O)([O-])O[C@H]1[C@@H](O)[C@@H](n4cnc5cc(C)c(C)cc54)O[C@H]1CO)[C@H]3CC(N)=O)[C@@](C)(CC(N)=O)[C@@H]2CCC(N)=O.[C-]#N.[Co+3]`, for which the activity change, negative = inhibition is inactive: 8.87% [at 20.6 µM].

Source of the values: PubChem BioAssay AID1347055 (National Center for Advancing Translational Sciences (NCATS), 2019).
